Here are results for one molecule from patent publication US12097261B2, “CDK2 degraders and uses thereof” (Kymera Therapeutics, Inc., priority 2021, dated 2024).

By UniProt entry, the sequences of proteins in these tests, tags left out.
UniProt P06493, whole entry: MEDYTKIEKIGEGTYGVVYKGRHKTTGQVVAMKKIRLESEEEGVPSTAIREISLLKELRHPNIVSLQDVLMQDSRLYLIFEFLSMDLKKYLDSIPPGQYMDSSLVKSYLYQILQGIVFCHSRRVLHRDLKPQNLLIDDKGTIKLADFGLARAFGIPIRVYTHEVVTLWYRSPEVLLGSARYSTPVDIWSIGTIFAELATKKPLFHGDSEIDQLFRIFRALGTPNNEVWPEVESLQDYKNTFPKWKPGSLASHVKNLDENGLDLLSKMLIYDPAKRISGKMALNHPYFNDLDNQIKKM

One experiment deals with CDK1 (Homo sapiens, UniProt P06493). Briefly: CDK1 degradation by immunoblotting in OVCAR-8 cells. Particulars: read-out: CDK1 DC50, (OVCAR-8, 24 h). How it is done:
(§1) CDK2 and CDK1 Degradation by Immunoblotting
(§2) Ovarian cancer cell line OVCAR-8 were cultured in 12-well plates in complete growth medium. A serial dilution of each compound was added to individual wells from a 2× stock solution, and cells were cultured for 24 hours. Cells were collected by centrifugation, and cell pellets lysed with addition of chilled RIPA buffer supplemented with protease/phosphatase inhibitors followed by incubation for 20 minutes on ice. Lysates were clarified by centrifugation and 5×SDS loading buffer was added to the supernatant followed by heating to 100° C. for 10 minutes. An aliquot of the samples were separated by SDS-PAGE and transferred to a nitrocellulose membrane. Immunoblotting was performed according to standard procedures using anti-CDK2 primary antibody (Abcam ab32147) at 1:1000 dilution and IRDye 800CW goat anti-Rabbit secondary antibody (LICOR) and imaged using a LICOR Odyssey instrument. Blots were stained with anti-beta-Actin primary antibody (Cell Signaling Technology mAb #4970) for normalization. The normalized CDK2/Actin values were calculated as a percent of DMSO treated cells and plotted to determine the concentration at which 50% of CDK2 signal is decreased (DC50). The determination of CDK1 degradation was determined similarly using anti-CDK1 primary antibody (Abcam ab131450).
For orientation: A western blot detects proteins with antibodies after separation by electrophoresis.

A further experiment deals with CDK2 (Homo sapiens, UniProt P24941). The experiment can be described thus: CDK2 degradation by immunoblotting in OVCAR-8 cells. Particulars: read-out: CDK2 DC50, (OVCAR-8, 24 h). How it is done:
as §1, §2

In general, DC50 refers to the concentration at which degradation of the target reaches its halfway point. Turning to `Cc1cc(S(=O)(=O)NCCOCCOCCOCCOCCCc2cccc3c2n(C)c(=O)n3C2CCC(=O)NC2=O)ccc1Nc1ncc2cc(C(F)F)c(=O)n([C@@H]3CCC[C@@]3(C)O)c2n1` (some centres unmarked), the DC50 at CDK1 was over 5000 nM; on CDK2 it was 10 to 100 nM.
